Source: patent publication US20260384424A1, “HETEROCYCLIC COMPOUND” (published 2026)

The chains behind the UniProt entries cited, without tags or fusion partners.
UniProt O75116, whole entry: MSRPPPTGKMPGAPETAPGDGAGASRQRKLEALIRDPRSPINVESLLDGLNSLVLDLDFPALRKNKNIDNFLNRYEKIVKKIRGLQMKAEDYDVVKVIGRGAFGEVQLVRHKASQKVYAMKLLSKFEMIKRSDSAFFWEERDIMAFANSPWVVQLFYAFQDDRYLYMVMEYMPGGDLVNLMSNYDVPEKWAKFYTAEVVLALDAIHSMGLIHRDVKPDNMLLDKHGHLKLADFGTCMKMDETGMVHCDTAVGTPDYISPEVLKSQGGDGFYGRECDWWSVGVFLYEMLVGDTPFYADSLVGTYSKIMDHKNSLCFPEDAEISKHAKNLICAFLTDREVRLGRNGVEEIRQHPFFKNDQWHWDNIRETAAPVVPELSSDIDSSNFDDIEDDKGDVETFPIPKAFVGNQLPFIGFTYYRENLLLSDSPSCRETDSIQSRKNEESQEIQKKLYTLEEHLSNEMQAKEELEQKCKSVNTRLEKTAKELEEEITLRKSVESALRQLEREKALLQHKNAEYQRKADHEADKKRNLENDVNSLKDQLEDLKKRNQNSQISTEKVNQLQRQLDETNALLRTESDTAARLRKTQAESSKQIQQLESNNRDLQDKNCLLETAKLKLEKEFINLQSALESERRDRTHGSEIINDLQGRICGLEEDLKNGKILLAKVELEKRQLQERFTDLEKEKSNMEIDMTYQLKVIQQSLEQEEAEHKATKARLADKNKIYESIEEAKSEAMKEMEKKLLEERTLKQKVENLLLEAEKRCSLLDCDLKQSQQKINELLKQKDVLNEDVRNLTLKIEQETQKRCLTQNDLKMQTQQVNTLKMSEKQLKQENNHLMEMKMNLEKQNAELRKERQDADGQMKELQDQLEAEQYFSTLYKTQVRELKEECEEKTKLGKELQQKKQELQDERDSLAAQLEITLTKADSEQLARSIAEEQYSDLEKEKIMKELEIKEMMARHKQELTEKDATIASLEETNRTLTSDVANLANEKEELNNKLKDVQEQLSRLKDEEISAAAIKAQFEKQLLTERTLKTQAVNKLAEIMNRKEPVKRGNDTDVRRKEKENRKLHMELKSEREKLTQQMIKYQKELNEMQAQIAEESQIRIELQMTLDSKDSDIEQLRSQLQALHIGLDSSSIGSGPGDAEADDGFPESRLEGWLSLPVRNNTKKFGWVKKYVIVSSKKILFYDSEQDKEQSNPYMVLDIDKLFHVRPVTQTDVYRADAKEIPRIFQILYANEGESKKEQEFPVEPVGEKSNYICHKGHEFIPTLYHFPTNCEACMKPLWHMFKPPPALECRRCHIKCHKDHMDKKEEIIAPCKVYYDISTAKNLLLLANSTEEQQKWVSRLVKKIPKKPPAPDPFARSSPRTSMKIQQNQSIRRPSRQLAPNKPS

Biological target: ROCK2 protein (Homo sapiens, UniProt O75116)
Assay: Degradation inducing activity of ROCK2 protein in HUVEC cells, Western Blotting
Conditions: 24 hours
Experimental: In vitro degradation inducing activity of ROCK2 protein of compounds of Examples was evaluated by Western Blotting (WB).
By a test compound, 10 mM DMSO solution was prepared, which was used as a 10 μM test compound solution. Further, the solution was diluted 10-fold with DMSO to prepare a 1 mM solution, which was used as a 1 μM test compound solution.
HUVEC cells (ATCC: CRL-1730, Lot: 70041472) were cultured in F-12K medium supplemented with 10% FBS, 0.1 mg/mL heparin, 30 mg/mL Endothelial Cell Growth Supplement (ECGS, Corning), and 1% Penicillin/Streptomycin. The HUVEC cells seeded in a 24 well plate at 50,000 cells/well/i mL were cultured for 24 hours, and then 1 μL of DMSO or a test compound solution was added thereto and treatment was performed for 24 hours. Cells were harvested and lysed for 20 minutes on ice using lysis buffer (Cell Signaling Technology, Cat #9803) supplemented with protease inhibitor cocktail (Sigma, Cat #P8340; Roche, Cat #P11873580001), and phosphatase inhibitor cocktail (Sigma, Cat #P5726, P0044). The lysate was sonicated (15 seconds, amplitude 30%, 1 cycle) and then centrifuged at 12500 rpm for 15 minutes at 4 °C. The protein concentration was determined by BCA assay kit (Thermo Fisher Scientific, Cat #23225).
The western blotting was performed using Simple Western JESS (protein simple). A cell lysis sample (protein amount; about 1.06 μg) was loaded on a plate of Simple Western JESS, and the expression level of ROCK2 protein was detected using a 12-230 kDa Wes Separation Module (Protein simple, Cat #SM-W004), an Anti-Rabbit Detection Module for Wes (Protein simple, Cat #DM-001), and a Total Protein Detection Module for Wes (Protein simple, Cat #DM-TP01). As the primary antibody, a material obtained by diluting ROCK2 (D1B1) Rabbit mAb (Cell Signaling Technology, Cat #9029) at 1:10 was used, and as the secondary antibody, a material obtained by diluting HRP-labeled anti-rabbit IgG antibody (Cell Signaling Technology, Cat #7074S) at 1:100 was used. The expression level of the target protein was standardized using the total protein amount loaded as a reference. The standardized expression level data of the control (DMSO) was taken as 100%, and the degradation rate (%) was calculated from the average standardized expression level data of the test compound. All analysis steps, such as data detection and analysis, are fully automated.
With respect to the ROCK2 protein degradation rate of the test compound, the protein degradation rates (%) at the evaluation concentrations were set to A≥75%, 75%>B≥50%, 50%>C≥25%, and D<25%, and are shown in Table 7.

Molecule | ROCK2 protein degradation rate (at 1 μm) | ROCK2 protein degradation rate (at 10 μm)
C[C@@H]1CN(CC(=O)N2CC(C)(C)c3ncc(Cc4ccc(F)cc4)cc32)[C@@H](CN(C)CCOCCOCCOCCOCCOCCN[C@H](Cc2cccc(F)c2)C(=O)Nc2ccc(-c3ccncc3)cc2)CN1 | D (D<25%) | C (50%>C≥25%)
COC[C@H]1CN[C@H](C)CN1CC(=O)N1CC(C)(C)c2ncc(Cc3cccc(OCCOCCOCCOCCNC[C@@H](C(=O)Nc4ccc5cnccc5c4)c4ccccc4)c3)cc21 | A/A (A≥75%) | A/A (A≥75%)
COC[C@H]1CN[C@H](C)CN1CC(=O)N1CC(C)(C)c2ncc(Cc3ccccc3OCCOCCOCCOCCOCCOCCNC[C@@H](C(=O)Nc3ccc4cnccc4c3)c3ccccc3)cc21 | C (50%>C≥25%) | A (A≥75%)
COC[C@H]1CN[C@H](C)CN1CC(=O)N1CC(C)(C)c2nc(CN(C)CCOCCOCCOCCOCCOCCOCCN[C@H](Cc3cccc(F)c3)C(=O)Nc3ccc(-c4ccncc4)cc3)c(Cc3ccc(F)cc3)cc21 | D (D<25%) | A (A≥75%)
COC[C@H]1CN[C@H](C)CN1CC(=O)N1CC(C)(C)c2ncc(Cc3cccc(OCCOCCOCCOCCOCCOCCN[C@H](C)c4ccc(C(=O)Nc5ccncc5)cc4)c3)cc21 | B (75%>B≥50%) | A (A≥75%)
COC[C@H]1CN[C@H](C)CN1CC(=O)N1CC(C)(C)c2ncc(Cc3ccccc3OCCOCCOCCN[C@H](Cc3cccc(F)c3)C(=O)Nc3ccc(-c4ccncc4)cc3)cc21 | D (D<25%) | A (A≥75%)
COC[C@H]1CN[C@H](C)CN1CC(=O)N1CC(C)(C)c2ncc(Cc3cccc(OCCOCCOCCOCCOCCNC[C@@H](C(=O)Nc4ccc5cnccc5c4)c4ccccc4)c3)cc21 | C (50%>C≥25%) | A (A≥75%)
COC[C@H]1CN[C@H](C)CN1CC(=O)N1CC(C)(C)c2ncc(Cc3ccccc3OCCOCCOCCOCCN[C@H](Cc3cccc(F)c3)C(=O)Nc3ccc(-c4ccncc4)cc3)cc21 | D (D<25%) | A (A≥75%)
COC[C@H]1CN[C@H](C)CN1CC(=O)N1CC(C)(C)c2ncc(Cc3cccc(OCCOCCNC[C@@H](C(=O)Nc4ccc5cnccc5c4)c4ccccc4)c3)cc21 | C (50%>C≥25%) | A (A≥75%)
C[C@@H]1CN(CC(=O)N2CC(C)(C)c3ncc(Cc4ccc(F)cc4)cc32)[C@@H](CN(C)CCOCCOCCOCCN[C@H](Cc2cccc(F)c2)C(=O)Nc2ccc(-c3ccncc3)cc2)CN1 | C (50%>C≥25%) | A (A≥75%)
COC[C@H]1CN[C@H](C)CN1CC(=O)N1CC(C)(C)c2nc(CN(C)CCOCCOCCOCCOCCNC[C@@H](C(=O)Nc3ccc4cnccc4c3)c3ccccc3)c(Cc3ccc(F)cc3)cc21 | C (50%>C≥25%) | A (A≥75%)
COC[C@H]1CN[C@H](C)CN1CC(=O)N1CC(C)(C)c2nc(CN(C)CCOCCOCCOCCOCCOCCOCCOCCN[C@H](C)c3ccc(C(=O)Nc4ccncc4)cc3)c(Cc3ccc(F)cc3)cc21 | B (75%>B≥50%) | D (D<25%)
COC[C@H]1CN[C@H](C)CN1CC(=O)N1CC(C)(C)c2ncc(Cc3cccc(OCCOCCOCCOCCN[C@H](C)c4ccc(C(=O)Nc5ccncc5)cc4)c3)cc21 | D (D<25%) | B (75%>B≥50%)
COC[C@H]1CN[C@H](C)CN1CC(=O)N1CC(C)(C)c2ncc(Cc3ccccc3OCCOCCN[C@H](C)c3ccc(C(=O)Nc4ccncc4)cc3)cc21 | D (D<25%) | B (75%>B≥50%)
COC[C@H]1CN[C@H](C)CN1CC(=O)N1CC(C)(C)c2ncc(Cc3cccc(OCCOCCOCCOCCOCCOCCOCCOCCNC[C@@H](C(=O)Nc4ccc5cnccc5c4)c4ccccc4)c3)cc21 | D (D<25%) | B (75%>B≥50%)
COC[C@H]1CN[C@H](C)CN1CC(=O)N1CC(C)(C)c2ncc(Cc3ccccc3OCCOCCOCCOCCOCCOCCOCCN[C@H](Cc3cccc(F)c3)C(=O)Nc3ccc(-c4ccncc4)cc3)cc21 | D (D<25%) | B (75%>B≥50%)
(S)-1-((2R,5R)-1-(2-(6-(4-Fluorobenzyl)-3,3-dimethyl-2,3-dihydro-1H-pyrrolo[3,2-b]pyridin-1-yl)-2-oxoethyl)-5-methylpiperazin-2-yl)-N-(isoquinolin-6-yl)-2-methyl-19-phenyl-5,8,11,14-tetraoxa-2,17-diazaicosan-20-amide | A/A (A≥75%) | A/A (A≥75%)
COC[C@H]1CN[C@H](C)CN1CC(=O)N1CC(C)(C)c2nc(CN(C)CCOCCOCCOCCNC[C@@H](C(=O)Nc3ccc4cnccc4c3)c3ccccc3)c(Cc3ccc(F)cc3)cc21 | D (D<25%) | A (A≥75%)
C[C@@H]1CN(CC(=O)N2CC(C)(C)c3ncc(Cc4ccc(F)cc4)cc32)[C@@H](CN(C)CCOCCOCCOCCOCCOCCNC[C@@H](C(=O)Nc2ccc3cnccc3c2)c2ccccc2)CN1 | C (50%>C≥25%) | A (A≥75%)
C[C@@H]1CN(CC(=O)N2CC(C)(C)c3ncc(Cc4ccc(F)cc4)cc32)[C@@H](CN(C)CCOCCN[C@H](Cc2cccc(F)c2)C(=O)Nc2ccc(-c3ccncc3)cc2)CN1 | C (50%>C≥25%) | A (A≥75%)
COC[C@H]1CN[C@H](C)CN1CC(=O)N1CC(C)(C)c2nc(CN(C)CCOCCOCCOCCOCCOCCOCCOCCN[C@H](Cc3cccc(F)c3)C(=O)Nc3ccc(-c4ccncc4)cc3)c(Cc3ccc(F)cc3)cc21 | B (75%>B≥50%) | A (A≥75%)

Further lines, results first:

ROCK2 protein degradation rate (at 1 μm) | ROCK2 protein degradation rate (at 10 μm) | Molecule
D (D<25%) | A (A≥75%) | COC[C@H]1CN[C@H](C)CN1CC(=O)N1CC(C)(C)c2nc(CN(C)CCOCCOCCOCCOCCOCCN[C@H](Cc3cccc(F)c3)C(=O)Nc3ccc(-c4ccncc4)cc3)c(Cc3ccc(F)cc3)cc21
B (75%>B≥50%) | A (A≥75%) | COC[C@H]1CN[C@H](C)CN1CC(=O)N1CC(C)(C)c2nc(CN(C)CCOCCOCCOCCOCCOCCN[C@H](C)c3ccc(C(=O)Nc4ccncc4)cc3)c(Cc3ccc(F)cc3)cc21
C (50%>C≥25%) | D (D<25%) | C[C@@H]1CN(CC(=O)N2CC(C)(C)c3ncc(Cc4ccc(F)cc4)cc32)[C@@H](CN(C)CCOCCOCCOCCOCCOCCN[C@H](C)c2ccc(C(=O)Nc3ccncc3)cc2)CN1
A (A≥75%) | C (50%>C≥25%) | COC[C@H]1CN[C@H](C)CN1CC(=O)N1CC(C)(C)c2ncc(Cc3cccc(OCCOCCOCCOCCOCCOCCN[C@H](Cc4cccc(F)c4)C(=O)Nc4ccc(-c5ccncc5)cc4)c3)cc21
A (A≥75%) | B (75%>B≥50%) | COC[C@H]1CN[C@H](C)CN1CC(=O)N1CC(C)(C)c2ncc(Cc3ccccc3OCCOCCOCCOCCOCCOCCN[C@H](C)c3ccc(C(=O)Nc4ccncc4)cc3)cc21
A (A≥75%) | B (75%>B≥50%) | COC[C@H]1CN[C@H](C)CN1CC(=O)N1CC(C)(C)c2ncc(Cc3cccc(OCCOCCOCCOCCOCCOCCOCCOCCN[C@H](C)c4ccc(C(=O)Nc5ccncc5)cc4)c3)cc21
A/A (A≥75%) | A/A (A≥75%) | COC[C@H]1CN[C@H](C)CN1CC(=O)N1CC(C)(C)c2nc(CN(C)CCOCCOCCOCCOCCN[C@H](C)c3ccc(C(=O)Nc4ccncc4)cc3)c(Cc3ccc(F)cc3)cc21
D/D (D<25%) | D/D (D<25%) | COC[C@H]1CN[C@H](C)CN1CC(=O)N1CC(C)(C)c2nc(CN(C)CCOCCOCCN[C@H](Cc3cccc(F)c3)C(=O)Nc3ccc(-c4ccncc4)cc3)c(Cc3ccc(F)cc3)cc21
A/A (A≥75%) | A/A (A≥75%) | COC[C@H]1CN[C@H](C)CN1CC(=O)N1CC(C)(C)c2nc(CN(C)CCOCCOCCN[C@H](C)c3ccc(C(=O)Nc4ccncc4)cc3)c(Cc3ccc(F)cc3)cc21
A/A (A≥75%) | A/A (A≥75%) | COC[C@H]1CN[C@H](C)CN1CC(=O)N1CC(C)(C)c2ncc(Cc3ccccc3OCCOCCOCCNC[C@@H](C(=O)Nc3ccc4cnccc4c3)c3ccccc3)cc21
